# In PubChem BioAssay AID2806 (Sanford-Burnham Center for Chemical Genomics, 2010):
# The entries are a selection whose mix differs from that of the whole data set. Activity calls are given as the source filed them.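 Rule for the calls: active = inhibition of at least 40% at 10 µM in the primary screen; inactive = the rest.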
# Test system: intestinal alkaline phosphatase [Mus musculus]
# Test: inhibitors of mouse IAP, primary screen, biochemical, luminescence, uHTS (AID 2806);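 note: plate controls were DMSO with enzyme for no effect and no enzyme wells for full effect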
# Details: purified mouse IAP, CDP-Star luminescence, 30 min; at 10 µM; active compounds read high
row,SMILES,inhibition
1,CCC(=O)N(c1ccccc1)C1(COC)CCN(CCc2cccs2)CC1,inactive: -19.6%
2,CCC(=O)N(c1ccccc1)C1(COC)CCN(CCn2nnn(CC)c2=O)CC1,inactive: -9.7%
